Results: PMC3130079 (2011)

By UniProt entry, the sequences of proteins in these tests, tags left out.
UniProt Q8BLA8, whole entry: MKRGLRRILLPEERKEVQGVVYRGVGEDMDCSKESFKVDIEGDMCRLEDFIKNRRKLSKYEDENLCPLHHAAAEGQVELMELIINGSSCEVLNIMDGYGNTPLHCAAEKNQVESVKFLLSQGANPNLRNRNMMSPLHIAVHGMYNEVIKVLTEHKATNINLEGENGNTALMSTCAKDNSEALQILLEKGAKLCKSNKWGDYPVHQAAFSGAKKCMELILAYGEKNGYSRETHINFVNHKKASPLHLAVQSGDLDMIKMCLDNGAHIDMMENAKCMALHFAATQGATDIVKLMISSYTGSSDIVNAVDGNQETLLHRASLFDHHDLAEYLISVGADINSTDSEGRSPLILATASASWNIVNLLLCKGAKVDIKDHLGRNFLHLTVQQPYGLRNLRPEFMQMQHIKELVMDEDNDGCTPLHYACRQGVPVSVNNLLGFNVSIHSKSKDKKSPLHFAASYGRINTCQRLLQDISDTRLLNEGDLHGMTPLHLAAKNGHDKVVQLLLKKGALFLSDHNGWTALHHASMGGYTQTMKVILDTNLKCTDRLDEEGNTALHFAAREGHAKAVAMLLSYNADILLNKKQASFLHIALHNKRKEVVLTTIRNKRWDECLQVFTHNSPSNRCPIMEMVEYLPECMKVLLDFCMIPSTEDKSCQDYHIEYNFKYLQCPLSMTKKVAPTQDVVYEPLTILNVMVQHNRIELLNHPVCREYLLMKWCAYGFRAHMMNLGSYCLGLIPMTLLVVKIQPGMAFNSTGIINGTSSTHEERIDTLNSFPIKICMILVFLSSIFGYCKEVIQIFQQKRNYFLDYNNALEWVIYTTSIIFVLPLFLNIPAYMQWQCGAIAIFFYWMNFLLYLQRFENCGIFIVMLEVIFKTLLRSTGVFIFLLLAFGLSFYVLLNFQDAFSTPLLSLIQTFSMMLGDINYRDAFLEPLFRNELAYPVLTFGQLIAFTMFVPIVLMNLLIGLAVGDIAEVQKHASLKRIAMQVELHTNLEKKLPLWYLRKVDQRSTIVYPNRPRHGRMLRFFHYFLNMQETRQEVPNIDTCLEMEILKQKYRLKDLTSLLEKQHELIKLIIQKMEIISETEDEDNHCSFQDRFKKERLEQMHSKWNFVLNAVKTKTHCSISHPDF

Target: TRPA1 (Mus musculus, UniProt Q8BLA8)
Experiment: cell-based

Cc1c(C(=O)NN2CCCCC2)nn(-c2ccc(Cl)cc2Cl)c1-c1ccc(I)cc1 [AM251]
EC50: ~21 µM
